Laboratory results: US10314847B2, “Scalarane sesterterpenoid, pharmaceutical composition and topoisomerase II and Hsp90 inhibitor for treating cancer, and use and preparation method thereof” (NATIONAL DONG HWA UNIVERSITY, priority 2017, dated 2019)

Amino acid sequences for entries named in this document (tags omitted). A change or cut given only in a name is not applied to a line headed by its entry.
UniProt P11388: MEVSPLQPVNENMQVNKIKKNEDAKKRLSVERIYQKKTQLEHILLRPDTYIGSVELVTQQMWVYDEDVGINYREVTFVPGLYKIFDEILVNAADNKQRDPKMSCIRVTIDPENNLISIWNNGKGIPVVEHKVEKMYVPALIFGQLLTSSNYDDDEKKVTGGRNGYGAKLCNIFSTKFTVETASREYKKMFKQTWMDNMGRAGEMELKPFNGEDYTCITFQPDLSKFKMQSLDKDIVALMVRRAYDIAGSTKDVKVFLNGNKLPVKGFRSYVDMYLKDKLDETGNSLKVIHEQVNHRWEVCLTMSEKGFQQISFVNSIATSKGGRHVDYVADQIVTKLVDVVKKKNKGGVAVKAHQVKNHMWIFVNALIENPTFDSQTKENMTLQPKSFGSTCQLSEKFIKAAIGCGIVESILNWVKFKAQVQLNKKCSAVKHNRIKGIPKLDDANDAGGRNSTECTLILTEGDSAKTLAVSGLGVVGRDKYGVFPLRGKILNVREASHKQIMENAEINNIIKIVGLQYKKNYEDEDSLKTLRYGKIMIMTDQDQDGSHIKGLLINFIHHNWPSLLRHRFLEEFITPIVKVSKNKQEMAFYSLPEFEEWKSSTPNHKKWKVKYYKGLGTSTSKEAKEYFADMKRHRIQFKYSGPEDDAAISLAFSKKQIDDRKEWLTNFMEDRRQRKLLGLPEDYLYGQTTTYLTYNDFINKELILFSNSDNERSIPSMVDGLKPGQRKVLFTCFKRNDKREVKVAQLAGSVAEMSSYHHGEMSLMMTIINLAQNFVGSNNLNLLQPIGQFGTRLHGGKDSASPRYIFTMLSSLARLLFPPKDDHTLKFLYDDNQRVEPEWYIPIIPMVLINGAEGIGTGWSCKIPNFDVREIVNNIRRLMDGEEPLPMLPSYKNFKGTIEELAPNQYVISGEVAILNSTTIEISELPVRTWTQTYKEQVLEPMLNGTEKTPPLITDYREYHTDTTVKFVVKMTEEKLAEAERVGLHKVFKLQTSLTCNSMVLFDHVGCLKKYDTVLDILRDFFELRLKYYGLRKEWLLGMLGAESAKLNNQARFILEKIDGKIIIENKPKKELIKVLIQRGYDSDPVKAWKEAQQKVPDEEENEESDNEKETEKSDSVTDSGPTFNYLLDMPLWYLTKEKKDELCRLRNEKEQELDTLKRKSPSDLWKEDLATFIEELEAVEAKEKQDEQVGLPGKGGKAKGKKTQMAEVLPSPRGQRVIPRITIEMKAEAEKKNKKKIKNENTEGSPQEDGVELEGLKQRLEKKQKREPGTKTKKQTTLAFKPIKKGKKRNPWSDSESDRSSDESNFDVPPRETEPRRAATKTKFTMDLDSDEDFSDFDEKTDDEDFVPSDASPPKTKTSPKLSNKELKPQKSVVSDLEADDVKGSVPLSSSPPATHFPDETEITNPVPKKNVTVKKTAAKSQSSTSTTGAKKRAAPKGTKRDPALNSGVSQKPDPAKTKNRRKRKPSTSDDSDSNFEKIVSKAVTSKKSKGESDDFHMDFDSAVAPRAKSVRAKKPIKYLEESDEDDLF

Target: T1, human topoisomerase II (Homo sapiens, UniProt P11388)
T1 construct: purchased Topogen
Test: Assay of topoisomerase II catalytic inhibitors and poisons (cell-free pHOT1 DNA relaxation/cleavage)
Type: biochemical
Conditions: 500 μM, positive control
Description: Assay of Topoisomerase II Catalytic Inhibitors and Poisons:
The assay was performed as described in the literatures (Shih et al., Marine Drugs, 2014, 12(5):3072-3090 and Shih et al., Marine drugs, 2015, 13(5):3132-3153). Standard relaxation reaction mixtures (20 μL) containing 50 mM Tris-HCl (pH 8.0), 10 mM MgCl2, 200 mM potassium glutamate, 10 mM dithiothreitol, 50 μg/mL bovine serum albumin (BSA), 1 mM ATP, 0.3 μg of pHOT1 plasmid DNA, 2 units of human topoisomerase II (Topogen, Columbus, Ohio, U.S.A.), and the indicated concentrations of etoposide and the compounds 1 to 3 were incubated at 37° C. for 30 minutes. Reactions were terminated by adding 2 μL of 10% SDS to facilitate trapping the enzyme in a cleavage complex, followed by the addition of 2.5 μL of proteinase K (50 μg/mL) to digest the bound protein (incubated at 37° C. for 15 minutes) and finally by adding 0.1 volume of the sample loading dye. The DNA products were analyzed via electrophoresis through vertical 2% agarose gels at 2 voltage/cm in 0.5×TAE buffer. Gels were stained with ethidium bromide (EtBr) and photographed using an Eagle Eye II system (Stratagene, La Jolla, Calif., U.S.A.). The quantitative analysis of the DNA Topo II activity was performed. […]

For `COc1cc([C@@H]2c3cc4c(cc3[C@@H](O[C@@H]3O[C@@H]5CO[C@@H](C)O[C@H]5[C@H](O)[C@H]3O)[C@H]3COC(=O)[C@H]23)OCO4)cc(OC)c1O` [etoposide, reference compound], the “DNA product with supercoiled pHOT1 plasmid DNA (topo II poison)” value was “linear DNA strand was observed”.
